Our source for the inhibition values is PubChem BioAssay AID602385 (Sanford-Burnham Center for Chemical Genomics, 2012).

Sequences of proteins named here, by UniProt entry; tags and fusion partners are left off. A change or cut given only in a name is not applied to a line headed by its entry.
UniProt P26358: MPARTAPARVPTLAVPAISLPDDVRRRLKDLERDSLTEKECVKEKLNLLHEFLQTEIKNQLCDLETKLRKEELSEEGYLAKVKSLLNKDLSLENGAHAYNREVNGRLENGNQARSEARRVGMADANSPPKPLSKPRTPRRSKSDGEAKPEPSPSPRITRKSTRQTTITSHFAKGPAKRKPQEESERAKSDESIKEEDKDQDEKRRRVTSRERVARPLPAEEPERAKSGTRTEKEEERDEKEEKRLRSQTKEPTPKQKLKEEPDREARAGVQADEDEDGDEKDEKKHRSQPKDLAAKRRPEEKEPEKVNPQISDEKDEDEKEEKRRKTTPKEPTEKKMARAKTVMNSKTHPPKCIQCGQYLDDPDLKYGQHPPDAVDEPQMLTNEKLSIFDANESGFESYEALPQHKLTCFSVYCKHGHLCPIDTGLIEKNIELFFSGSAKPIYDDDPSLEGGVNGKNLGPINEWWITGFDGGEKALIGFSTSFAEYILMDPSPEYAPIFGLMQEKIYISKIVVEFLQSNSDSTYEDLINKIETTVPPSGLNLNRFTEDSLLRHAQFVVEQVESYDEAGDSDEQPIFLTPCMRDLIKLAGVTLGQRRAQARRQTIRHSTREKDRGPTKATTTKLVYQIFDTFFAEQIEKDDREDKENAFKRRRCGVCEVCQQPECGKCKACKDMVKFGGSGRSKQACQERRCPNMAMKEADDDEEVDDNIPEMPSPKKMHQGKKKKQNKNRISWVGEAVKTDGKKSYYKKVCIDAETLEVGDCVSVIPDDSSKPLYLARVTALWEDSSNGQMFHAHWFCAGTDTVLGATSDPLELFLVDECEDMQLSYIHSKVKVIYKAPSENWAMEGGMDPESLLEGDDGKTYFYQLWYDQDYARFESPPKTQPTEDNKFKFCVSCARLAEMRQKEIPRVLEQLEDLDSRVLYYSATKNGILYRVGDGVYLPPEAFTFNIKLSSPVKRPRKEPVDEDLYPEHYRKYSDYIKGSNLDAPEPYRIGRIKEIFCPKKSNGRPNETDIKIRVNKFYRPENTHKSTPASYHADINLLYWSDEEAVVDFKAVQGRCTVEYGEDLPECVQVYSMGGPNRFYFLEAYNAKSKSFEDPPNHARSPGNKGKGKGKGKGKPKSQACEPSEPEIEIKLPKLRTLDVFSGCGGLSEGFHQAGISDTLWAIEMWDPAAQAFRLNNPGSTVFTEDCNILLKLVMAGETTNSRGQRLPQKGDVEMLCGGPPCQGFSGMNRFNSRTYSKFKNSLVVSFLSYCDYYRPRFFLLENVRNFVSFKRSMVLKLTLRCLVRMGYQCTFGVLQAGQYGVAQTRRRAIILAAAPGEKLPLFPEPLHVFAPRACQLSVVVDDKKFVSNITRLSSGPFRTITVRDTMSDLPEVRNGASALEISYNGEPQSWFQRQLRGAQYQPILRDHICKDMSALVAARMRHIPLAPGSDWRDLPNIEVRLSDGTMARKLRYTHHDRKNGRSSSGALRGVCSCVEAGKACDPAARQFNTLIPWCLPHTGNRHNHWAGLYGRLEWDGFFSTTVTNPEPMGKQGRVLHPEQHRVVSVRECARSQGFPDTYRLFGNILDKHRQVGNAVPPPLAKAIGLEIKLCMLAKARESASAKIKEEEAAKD

By inhibition is commonly meant how much of the control response was suppressed.

Only a part is listed here, and it is no random draw. Activity calls are given as the source filed them.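 How the source made its calls: active means average inhibition of at least 30% in the single-concentration confirmation test; inactive means the rest.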

The target in the test is DNA (cytosine-5)-methyltransferase 1 (Homo sapiens) (UniProt P26358). Put plainly: DNMT1 methyltransferase inhibitor retest, confirmation, biochemical, molecular beacon, fluorescence, single concentration (AID 602385). To be noted: DNMT1 molecular beacon HinP1I cleavage, at 10 µM, active compounds read high.
With `Nc1cccc2ccc([As](=O)(O)O)cc12`, the inhibition was inactive: 5.76%. `Nc1cccc2c([As](=O)(O)O)cccc12`: the inhibition is inactive: 1.56%.
